Chains of the proteins cited; added tags and fusions are not shown.
UniProt Q8NER1, whole entry: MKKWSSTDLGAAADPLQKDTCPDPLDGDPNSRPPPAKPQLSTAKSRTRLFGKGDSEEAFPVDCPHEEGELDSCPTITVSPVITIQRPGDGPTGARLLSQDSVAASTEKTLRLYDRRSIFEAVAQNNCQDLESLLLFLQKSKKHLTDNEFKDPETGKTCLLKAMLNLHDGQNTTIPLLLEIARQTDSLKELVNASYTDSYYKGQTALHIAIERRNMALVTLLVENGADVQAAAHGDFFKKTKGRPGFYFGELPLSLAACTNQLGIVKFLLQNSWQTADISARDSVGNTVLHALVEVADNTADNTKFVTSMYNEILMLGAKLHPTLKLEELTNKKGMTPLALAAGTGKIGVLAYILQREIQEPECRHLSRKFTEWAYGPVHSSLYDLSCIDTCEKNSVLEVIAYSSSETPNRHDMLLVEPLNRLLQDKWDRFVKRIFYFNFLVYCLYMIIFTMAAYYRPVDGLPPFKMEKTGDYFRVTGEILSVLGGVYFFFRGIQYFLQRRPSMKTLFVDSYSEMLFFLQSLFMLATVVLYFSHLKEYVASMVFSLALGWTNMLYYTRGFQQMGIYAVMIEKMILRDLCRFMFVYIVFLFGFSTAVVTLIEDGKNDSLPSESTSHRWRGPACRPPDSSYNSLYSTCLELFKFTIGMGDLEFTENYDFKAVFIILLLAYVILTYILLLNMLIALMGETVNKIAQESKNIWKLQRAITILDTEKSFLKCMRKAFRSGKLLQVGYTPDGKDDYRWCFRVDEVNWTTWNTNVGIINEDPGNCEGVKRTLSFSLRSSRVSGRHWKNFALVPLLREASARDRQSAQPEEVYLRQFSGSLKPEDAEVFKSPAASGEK

In patent publication US7754723B2:

Assays:
human VR1 [1] = molecular target: T1, human VR1 (Homo sapiens, UniProt Q8NER1); assay: Capsaicin-based assay of VR1 inhibition (FLIPR calcium influx, HEK293-EcR cells expressing human VR1); conditions: activation by capsaicin (400 nM), HEK293-EcR cells expressing human VR1, n=3
Experimental: (§1) Human VR1 Cloning: Human spinal cord RNA (commercially available from Clontech, Palo Alto, Calif.) was used. Reverse transcription was conducted on 1.0 μg total RNA using Thermoscript Reverse Transcriptase (commercially available from Invitrogen) and oligo dT primers as detailed in its product description. Reverse transcription reactions were incubated at 55° C. for 1 h, heat-inactivated at 85° C. for 5 min, and RNase H-treated at 37° C. for 20 min.
(§2) Human VR1 cDNA sequence was obtained by comparison of the human genomic sequence, prior to annotation, to the published rat sequence. Intron sequences were removed and flanking exonic sequences were joined to generate the hypothetical human cDNA. Primers flanking the coding region of human VR1 were designed as follows: forward primer, […]; and reverse primer, […]. […]
(§3) Generation of Inducible Cell Lines: Unless noted otherwise, cell culture reagents were purchased from Life Technologies of Rockville, Md. […] On the day of assay, cells were loaded with Fluo-4 (a calcium-sensitive dye that is commercially available from Molecular Probes) and CAP-mediated calcium influx was measured using a FLIPR as described below. […]

human VR1 [2] = molecular target: T1, human VR1; assay: pH-based assay of VR1 inhibition (FLIPR calcium influx, HEK293-EcR cells expressing human VR1); conditions: activation at pH 5.5, HEK293-EcR cells expressing human VR1, n=4
Experimental: as §1, §2, §3

CC(C)(C)c1ccc(NC(=C[N+](=O)[O-])N2CCN(c3ncccc3Cl)CC2)cc1
IC50 (human VR1 [1]): 0.0922 µM | IC50 (human VR1 [2]): 0.291 µM
